Assay results: patent EP4635500A1, “THERAPEUTIC AGENT FOR BACTERIAL INFECTION” (Sumitomo Pharma Co., Ltd., priority 2022, dated 2024)

Columns and labels:
[1] = Plasma PK of Compound A after single intravenous dose (Example 21, Table 37); type: in vivo, monkey; conditions: Monkeys (n = 2); 1 mg/kg intravenous single dose
[2] = as above; type: in vivo, rat; conditions: Rats (n = 3); 5 mg/kg intravenous single dose
[3] = PK prediction in a clinical setting by allometric scaling (Example 23); set-up: species or system human; conditions: allometric scaling from rat, dog, monkey
[4] = Preliminary population PK analysis of Phase I data, 2-compartment model (Example 28, Table 38); set-up: species or system human; conditions: interindividual variability
[5] = Phase 1 study pharmacokinetics, 3-hour intravenous infusion (Example 31, Tables 39-42); type: in vivo, human; conditions: average (standard deviation)
[6] = Plasma PK of Compound A after single intravenous dose (Example 21, Table 37); type: in vivo, dog; conditions: Dogs (n = 2); 1 mg/kg intravenous single dose
[7] = Phase 1 study safety and tolerability (Example 32); type: in vivo, human
[8] = Population PK analysis of Phase I data, 2-compartment model (Example 33, Table 43); set-up: species or system human
[9] = population PK, 2-compartment model

With `N[C@@H](C(=O)N1CC(Oc2ccc3c(c2C(=O)O)OB(O)CC3)C1)c1c[nH]cn1` the “AUC0-∞” value [1] was 7190 ng·h/mL, the C0 [1] was 11400 ng/mL and the Vss [1] was 0.193 L/kg. For the same compound, the CL [2] was 6.4 ± 1.7 mL/min/kg, the Vss [2] was 0.380 ± 0.011 L/kg and the “CL (predicted)” value [3] was 0.620 mL/min/kg. For the same compound, the “Vss (predicted)” value [3] was 0.116 L/kg, the “IIV CL, Coefficient of variation % (Shrinkage %)” value [4] was 22.6(0.0395) % and the “IIV Q, Coefficient of variation % (Shrinkage %)” value [4] was 37.0(19.6) %. The AUC0-tau ([5]; 500 mg every 8 hours in combination with 2 g/dose of meropenem, day 5) was 143 (61.5) µg·h/mL, the AUC0-tau ([5]; 500 mg every 8 hours, day 5 of repeated administration) was 99.2 (14. 9) µg·h/mL and the AUC0-tau ([5]; 1000 mg every 8 hours, day 5 of repeated administration) was 243 (53.7) µg·h/mL. For the same compound, the AUC0-tau ([5]; 1500 mg every 8 hours in combination with 2 g/dose of meropenem, day 5) was 547 (87.5) µg·h/mL, the AUC0-tau ([5]; 1500 mg every 8 hours, day 5 of repeated administration) was 463 (96.0) µg·h/mL and the T1/2 ([5]; Japanese, single dose 250 mg) was 2.77(0.659) 1/h. The T1/2 ([5]; Japanese, single dose 750 mg) was 3.40(0.291) 1/h, the T1/2 ([5]; Japanese, single dose 1500 mg) was 4.27(0.82) 1/h and the T1/2 ([5]; single dose 50 mg) was 2.66 (0.361) 1/h. The T1/2 ([5]; single dose 125 mg) was 3.51 (0.989) 1/h, the T1/2 ([5]; single dose 250 mg) was 3.87 (0.268) 1/h and the T1/2 ([5]; single dose 750 mg) was 3.49 (0.303) 1/h. For the same compound, the T1/2 ([5]; single dose 1500 mg) was 4.05 (0.918) 1/h, the T1/2 ([5]; single dose 2000 mg) was 4.83 (1.13) 1/h and the “AUC0-∞” value [6] was 6590 ng·h/mL. The CL [6] was 2.55 mL/min/kg, the safety and tolerability ([7]; 50 mg to 1500 mg, intravenous infusion for 3 hours every 8 hours for 5 days) was “safe and tolerated” and the safety and tolerability ([7]; 50 mg to 2000 mg, intravenous infusion for 3 hours) was “safe and tolerated”. For the same compound, the “θSex on Vc, Estimated value (95% confidence interval)” value ([8]; 0 for male) was -0.114 (-0.192, -0.0434) ;, the “θBW on CL, Estimated value (95% confidence interval)” value ([8]; covariate exponent, BW/75.2) was 0.561 (0.299, 0.810) and the “θBW on Q, Estimated value (95% confidence interval)” value ([8]; covariate exponent, BW/75.2) was 1.37 (0.948, 1.69). For the same compound, the “θBW on Vc, Estimated value (95% confidence interval)” value ([8]; covariate exponent, BW/75.2) was 0.455 (0.270, 0.658), the “θBW on Vp, Estimated value (95% confidence interval)” value ([8]; covariate exponent, BW/75.2) was 1.37 (0.948, 1.69) and the “ωCL^2, Coefficient of variation” value ([8]; interindividual variability) was 18.1%. The “ωCL^2, Estimated value (95% confidence interval)” value ([8]; interindividual variability) was 0.0323 (0.0223, 0.0391), the “ωVc^2, Coefficient of variation” value ([8]; interindividual variability) was 14.6% and the “ωVp^2, Coefficient of variation” value ([8]; interindividual variability) was 52.1%. The “σ^2, Coefficient of variation” value ([8]; intraindividual variability) was 9.13%, the “σ^2, Estimated value (95% confidence interval)” value ([8]; intraindividual variability) was 0.00831 (0.00676, 0.0111) and the “Q θQ, Estimated value (95% confidence interval)” value [8, 9] was 1.08 (0.953, 1.17) L/h. The “Vc θVc, Estimated value (95% confidence interval)” value [8, 9] was 11.0 (10.6, 11.6) L and the “Vp θVp, Estimated value (95% confidence interval)” value [8, 9] was 4.12 (3.70, 4.61) L.
